Measured values from PMC2793091 (Biochemistry, 2009).
Several values for one entry are separate records, joined by “and”; a condition that tells them apart may be missing. Equal entries are not always repeated. Where two headings read alike, the source gives them in different places.

Assays:
Format in all cases: binding
hVAChT [1] = target: T1, hVAChT (Homo sapiens, UniProt Q16572); test: Stability of hVAChT at high pH, pH cycling of bound [3H]vesamicol; conditions: pH 7.4, 4 nM [3H]vesamicol
T1 sequence (Q16572 1-532): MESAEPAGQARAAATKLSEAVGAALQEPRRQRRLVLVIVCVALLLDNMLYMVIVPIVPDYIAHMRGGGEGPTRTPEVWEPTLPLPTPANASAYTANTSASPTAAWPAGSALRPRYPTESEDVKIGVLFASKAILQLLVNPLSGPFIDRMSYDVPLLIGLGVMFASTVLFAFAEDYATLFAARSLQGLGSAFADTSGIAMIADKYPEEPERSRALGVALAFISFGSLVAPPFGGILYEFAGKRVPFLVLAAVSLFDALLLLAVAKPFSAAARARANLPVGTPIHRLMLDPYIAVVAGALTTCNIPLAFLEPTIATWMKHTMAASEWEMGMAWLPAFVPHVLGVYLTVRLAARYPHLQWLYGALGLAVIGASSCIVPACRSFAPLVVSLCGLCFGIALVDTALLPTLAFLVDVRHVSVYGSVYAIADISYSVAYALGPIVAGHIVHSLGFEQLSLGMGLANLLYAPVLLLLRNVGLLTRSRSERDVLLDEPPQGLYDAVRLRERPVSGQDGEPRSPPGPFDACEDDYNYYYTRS

hVAChT [2] = target: T1, hVAChT; test: Time-dependent dissociation of bound [3H]vesamicol after excess
hVAChT [3] = target: T1, hVAChT
hVAChT [4] = target: T1, hVAChT; conditions: pH 5.0-6.9
hVAChT [5] = target: T1, hVAChT; test: Saturation curves for [3H]vesamicol at alkaline pH values; conditions: read-out: KdvespH

Which “time of initial binding to reach equilibrium” value (hVAChT [1]) does the source give for “(−)-[^3H]trans-2-(4-phenylpiperidino)cyclohexanol [[^3H]vesamicol]” here?
The value was ~ 10 min.

What about the “fraction of the dissociation that is fast” value (hVAChT [2]; all alkaline pH values) of the same substance?
Its value is 73 – 80%.

And the “change of the faster and slower rate constants” value (hVAChT [2]; from pH 7.3 to pH 9.5)?
Its value is “increase by a factor of four”.

What about the Fractfast (hVAChT [2]; pH 7.3) of the same substance?
Its Fractfast is 0.75 ± 0.08.

And the kfast (hVAChT [2]; pH 7.3)?
The kfast was 0.54 ± 0.08 min⁻¹.

And the kslow (hVAChT [2]; pH 7.3)?
Its kslow is 0.08 ± 0.03 min⁻¹.

What about the Fractfast (hVAChT [2]; pH 8.5) of the same substance?
The Fractfast was 0.80 ± 0.04.

What about the kfast (hVAChT [2]; pH 8.5) of the same substance?
Its kfast is 1.42 ± 0.13 min⁻¹.

What about the kslow (hVAChT [2]; pH 8.5) of the same substance?
The kslow was 0.16 ± 0.05 min⁻¹.

What about the Fractfast (hVAChT [2]; pH 9.5) of the same substance?
Its Fractfast is 0.73 ± 0.05.

What about the kfast (hVAChT [2]; pH 9.5) of the same substance?
Its kfast is 2.27 ± 0.25 min⁻¹.

What about the kslow (hVAChT [2]; pH 9.5) of the same substance?
The kslow was 0.33 ± 0.07 min⁻¹.

And the “pKAves (Site A in [3H]vesamicol-bound hVAChT)” value (hVAChT [3]; Model (iii))?
The value was 7.9 ± 0.3.

What about the “α (factor by which KA changes when [3H]vesamicol is bound)” value (hVAChT [3]; Model (iii)) of the same substance?
Its value is 0.45 ± 0.11.

What about the “pK1 (proton at Site 1 of hVAChT, must dissociate for [3H]vesamicol binding)” value (hVAChT [3]; Model (iii), averaged from five pH-binding profiles, 5 nM [3H]vesamicol) of the same substance?
Its value is 6.5 ± 0.1.

And the “decrease of affinity on deprotonation of Site A” value (hVAChT [3]; protonated [3H]vesamicol)?
The value was 2.2 ± 0.5 fold and ~ 2 fold.

And the “increase of affinity on deprotonation of Site B” value (hVAChT [3]; protonated [3H]vesamicol)?
The value was 18 ± 4 fold and ~ 18 fold.

What about the “pK1 (weak acid that must dissociate to bind [3H]vesamicol)” value (hVAChT [4]; competitive model) of the same substance?
The value was 6.63 ± 0.06.

And the Bmax (hVAChT [4])?
Its Bmax is 23.6 ± 0.43 pmol/mg.

And the Kd (hVAChT [4]; read-out: apparent dissociation constant (Kves), competitive model)?
The Kd was 10.1 ± 1.15 nM.

And the Kd (hVAChT [5]; pH 7.1, protonated form)?
The Kd was 12.5 ± 1.6 nM.

What about the Kd (hVAChT [5]; pH 8.0, protonated form) of the same substance?
The Kd was 10.9 ± 1.4 nM.

And the Kd (hVAChT [5]; pH 8.9, protonated form)?
Its Kd is 9.1 ± 1.1 nM.
